US9340577B2, “HLA binding motifs and peptides and their uses” (priority 1992, dated 2016)
Like-named read-outs stand apart in the source and are kept apart here.

Protein sequences, listed by entry. Tags and fused reporters are not part of them. Residues count along the entry.
UniProt Q30154, 30-266: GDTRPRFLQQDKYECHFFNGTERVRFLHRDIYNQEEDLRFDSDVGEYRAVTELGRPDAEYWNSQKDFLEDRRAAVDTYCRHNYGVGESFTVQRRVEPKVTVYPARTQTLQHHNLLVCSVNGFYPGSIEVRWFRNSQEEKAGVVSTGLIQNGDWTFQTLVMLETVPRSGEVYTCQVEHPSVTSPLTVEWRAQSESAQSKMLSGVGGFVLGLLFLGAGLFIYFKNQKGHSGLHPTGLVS

How the values were obtained:
Assay in all cases: biochemical
DRB5*0101 = DRB5*0101 (Homo sapiens, UniProt P01903+Q30154)
DRB1*1101 = DRB1*1101 (Homo sapiens, UniProt P01903+P01911, A100R/A169T/A87E/I96F/K41T/L162R/M171V/P40S/Q125H/Q178H/Q39Y/Q99D/R42S/S66Y/T262R/V115G/W38E)
DRB1*0901 = DRB1*0901 (Homo sapiens, UniProt P01903+P01911, A100R/A103E/D57H/D86V/F55Y/F60I/F76Y/I96F/K127E/L162R/M171V/P40D/Q125H/Q99R/R33Q/R42F/S133A/S66N/T210M/V115G/W38K/Y107V/Y59G/Y89S)
DRB4*0101 = DRB4*0101 (Homo sapiens, UniProt P01903+P13762, G164S)
A*3002 = A*3002 (Homo sapiens, UniProt P04439, D101N/D140H/D185E/E176R/F33S/G80R/H175R/K168Q/Q94H/R138E/R41S/V100E); format: binding

With `CC[C@H](C)[C@H](NC(=O)[C@H](CC(C)C)NC(=O)[C@@H](NC(=O)CNC(=O)[C@H](Cc1c[nH]c2ccccc12)NC(=O)[C@@H](N)CCCCN)C(C)C)C(=O)N[C@@H](CC(C)C)C(=O)N[C@@H](C)C(=O)N[C@@H](CC(C)C)C(=O)N[C@@H](CC(C)C)C(=O)N[C@@H](CCCNC(=N)N)C(=O)N[C@@H](Cc1ccc(O)cc1)C(=O)N[C@@H](CCCCN)C(=O)N[C@@H](CS)C(=O)NCC(=O)O` [Peptide 89.0027] as the molecule, how does the IC50 (DRB5*0101; […]) read?
The IC50 was 569 nM.

Which IC50 (DRB1*1101; Binding affinity DRB1 *1101) does the source give for `CC(C)C[C@H](NC(=O)[C@H](CC(C)C)NC(=O)[C@H](CCC(N)=O)NC(=O)[C@@H](N)CCC(N)=O)C(=O)N[C@@H](CCC(N)=O)C(=O)N[C@H](C(=O)N[C@@H](CCC(N)=O)C(=O)N[C@H](C(=O)N[C@@H](C)C(=O)N[C@@H](Cc1c[nH]cn1)C(=O)N[C@@H](C)C(=O)N[C@@H](CC(=O)O)C(=O)N[C@@H](CCCCN)C(=O)N[C@@H](CCC(N)=O)C(=O)N[C@H](C(=O)O)[C@@H](C)O)[C@@H](C)O)C(C)C` [Peptide 89.0115] here?
Its IC50 is 9680 nM.

For `CC[C@H](C)[C@H](NC(=O)[C@H](CCCCN)NC(=O)[C@@H]1CCCN1C(=O)[C@@H]1CCCN1C(=O)[C@H](CCC(N)=O)NC(=O)[C@@H](NC(=O)[C@H](CC(C)C)NC(=O)[C@H](CCSC)NC(=O)[C@H](CCC(N)=O)NC(=O)[C@H](CCC(=O)O)NC(=O)[C@@H](N)CCC(N)=O)[C@@H](C)CC)C(=O)N[C@@H](CCCNC(=N)N)C(=O)N[C@@H](CO)C(=O)N1CCC[C@H]1C(=O)N[C@@H](C)C(=O)O` [Peptide 89.0124], which IC50 (DRB1*1101) is on record?
Its IC50 is 18400 nM.

What about the IC50 (DRB1*0901) of the same molecule?
The IC50 was 1470 nM.

`CC[C@H](C)[C@H](NC(=O)[C@H](CC(N)=O)NC(=O)[C@@H](NC(=O)[C@@H](NC(=O)[C@@H](NC(=O)[C@H](CC(C)C)NC(=O)[C@H](CC(C)C)NC(=O)[C@@H]1CCCN1C(=O)[C@@H]1CCCN1)[C@@H](C)CC)[C@@H](C)O)[C@@H](C)O)C(=O)N[C@@H](CC(N)=O)C(=O)N1CCC[C@H]1C(=O)N[C@@H](CCSC)C(=O)N[C@@H](CC(C)C)C(=O)N[C@@H](CC(=O)O)C(=O)N[C@@H](C)C(=O)O` [Peptide 89.0139] was tested. Which IC50 (DRB5*0101) did it give?
Its IC50 is 5020 nM.

For `CC[C@H](C)[C@H](NC(=O)[C@@H](NC(=O)[C@H](CCC(N)=O)NC(=O)[C@@H](N)Cc1ccccc1)C(C)C)C(=O)N[C@@H](CCC(=O)O)C(=O)N[C@@H](CC(C)C)C(=O)N[C@@H](CCC(N)=O)C(=O)N[C@@H](CCSC)C(=O)N[C@@H](C)C(=O)N[C@@H](CC(C)C)C(=O)N[C@@H](CCC(=O)O)C(=O)N[C@H](C(=O)N[C@@H](CC(C)C)C(=O)N[C@@H](CO)C(=O)N[C@@H](CCCCN)C(=O)O)[C@@H](C)O` [Peptide 89.0182], which IC50 (DRB5*0101; […]) is on record?
Its IC50 is 3510 nM.

Which IC50 (DRB5*0101; […]) does the source give for `CSCC[C@H](NC(=O)[C@H](CC(=O)O)NC(=O)[C@H](CO)NC(=O)[C@@H](N)CCC(=O)O)C(=O)N[C@@H](C)C(=O)N[C@@H](Cc1ccccc1)C(=O)N[C@@H](CCC(=O)O)C(=O)N[C@@H](Cc1ccc(O)cc1)C(=O)N[C@@H](C)C(=O)N[C@@H](CC(C)C)C(=O)N[C@@H](CC(C)C)C(=O)N[C@@H](C)C(=O)N[C@@H](CC(=O)O)C(=O)N[C@@H](CO)C(=O)N[C@@H](CC(N)=O)C(=O)O` [Peptide 90.0055] here?
Its IC50 is 13100 nM.

With `CC[C@H](C)[C@H](NC(=O)CNC(=O)[C@H](C)NC(=O)[C@H](Cc1ccccc1)NC(=O)[C@H](CO)NC(=O)[C@@H](NC(=O)[C@H](CCC(=O)O)NC(=O)[C@H](CC(=O)O)NC(=O)[C@H](CO)NC(=O)[C@H](CO)NC(=O)[C@H](Cc1ccccc1)NC(=O)[C@@H](NC(=O)[C@H](CO)NC(=O)[C@@H](N)CCC(=O)O)C(C)C)[C@@H](C)CC)C(=O)N[C@H](C(=O)O)C(C)C` [Peptide 90.0195] as the molecule, how does the IC50 (DRB4*0101) read?
Its IC50 is 1320 nM.

With `CC[C@H](C)[C@H](NC(=O)[C@H](C)NC(=O)[C@H](CC(N)=O)NC(=O)[C@H](CCC(=O)O)NC(=O)[C@H](CC(C)C)NC(=O)[C@H](CCCNC(=N)N)NC(=O)[C@@H](NC(=O)[C@H](CC(C)C)NC(=O)[C@H](CCC(N)=O)NC(=O)[C@@H](N)Cc1c[nH]c2ccccc12)[C@@H](C)CC)C(=O)N[C@@H](CC(C)C)C(=O)N[C@@H](Cc1ccccc1)C(=O)N[C@H](C(=O)N[C@@H](C)C(=O)N[C@@H](CCCNC(=N)N)C(=O)O)[C@@H](C)O` [Peptide 90.0211] as the molecule, how does the IC50 (DRB1*1101; Binding affinity DRB1 *1101) read?
The IC50 was 269 nM.

For `CC[C@H](C)[C@H](NC(=O)[C@H](CO)NC(=O)[C@H](CC(=O)O)NC(=O)[C@H](Cc1c[nH]c2ccccc12)NC(=O)[C@@H](NC(=O)[C@@H](NC(=O)[C@H](Cc1ccc(O)cc1)NC(=O)[C@H](CC(N)=O)NC(=O)[C@@H](N)CCSC)C(C)C)C(C)C)C(=O)N[C@@H](Cc1ccc(O)cc1)C(=O)N[C@@H](Cc1ccc(O)cc1)C(=O)N[C@H](C(=O)N[C@H](C(=O)N[C@@H](CCC(=O)O)C(=O)N[C@H](C(=O)O)[C@@H](C)O)[C@@H](C)O)[C@@H](C)CC` [Peptide 90.0214], which IC50 (DRB4*0101) is on record?
The IC50 was 769 nM.

How did the IC50 (DRB1*1101; Binding affinity DRB1 *1101) turn out when `CC[C@H](C)[C@H](N)C(=O)N[C@H](C(=O)N[C@@H](Cc1c[nH]cn1)C(=O)N[C@@H](CC(C)C)C(=O)N[C@@H](CCCCN)C(=O)NCC(=O)N[C@@H](CC(=O)O)C(=O)N1CCC[C@H]1C(=O)N[C@@H](CC(N)=O)C(=O)N[C@@H](CO)C(=O)N[C@@H](CC(C)C)C(=O)N[C@@H](CCCCN)C(=O)N[C@@H](CS)C(=O)N[C@@H](CC(C)C)C(=O)N[C@@H](CCCNC(=N)N)C(=O)O)C(C)C` [Peptide 90.0255] was run?
The IC50 was 12100 nM.

Which IC50 (DRB4*0101) does the source give for `CC[C@H](C)[C@H](NC(=O)[C@H](CCC(N)=O)NC(=O)[C@@H](NC(=O)[C@H](CO)NC(=O)[C@H](CC(N)=O)NC(=O)[C@@H]1CCCN1C(=O)[C@@H](NC(=O)[C@@H](NC(=O)[C@@H](NC(=O)[C@@H](N)C(C)C)C(C)C)[C@@H](C)O)[C@@H](C)CC)C(C)C)C(=O)N[C@@H](CO)C(=O)N[C@H](C(=O)NCC(=O)N[C@@H](Cc1ccc(O)cc1)C(=O)N[C@@H](CCSC)C(=O)O)C(C)C` [Peptide 1601.41] here?
Its IC50 is 294 nM.

For `CC[C@H](C)[C@H](NC(=O)CNC(=O)[C@H](C)NC(=O)[C@H](Cc1ccccc1)NC(=O)[C@H](CO)NC(=O)[C@@H](NC(=O)[C@H](CCC(=O)O)NC(=O)[C@H](CC(=O)O)NC(=O)[C@@H](N)CO)[C@@H](C)CC)C(=O)N[C@H](C(=O)N[C@H](C(=O)N[C@@H](CCCCN)C(=O)N[C@@H](CC(C)C)C(=O)N1CCC[C@H]1C(=O)N[C@H](C(=O)O)[C@@H](C)O)[C@@H](C)O)C(C)C` [Peptide 1601.45], which IC50 (DRB4*0101) is on record?
Its IC50 is 14200 nM.

How did the IC50 (A*3002) turn out when `CC[C@H](C)[C@H](NC(=O)[C@@H]1CCCN1C(=O)[C@@H](NC(=O)[C@@H]1CCCN1C(=O)[C@H](CC(=O)O)NC(=O)[C@H](Cc1ccccc1)NC(=O)[C@@H](N)CO)[C@@H](C)CC)C(=O)N[C@@H](Cc1c[nH]cn1)C(=O)N[C@@H](Cc1ccc(O)cc1)C(=O)O` [Peptide 9015.0002] was run?
The IC50 was 183 nM.

For `CC[C@H](C)[C@H](NC(=O)[C@H](Cc1ccc(O)cc1)NC(=O)[C@@H](NC(=O)[C@@H](NC(=O)[C@@H](NC(=O)[C@H](Cc1c[nH]c2ccccc12)NC(=O)[C@@H](N)C(C)C)[C@@H](C)O)[C@@H](C)CC)C(C)C)C(=O)N[C@@H](CCC(=O)O)C(=O)N[C@@H](Cc1ccc(O)cc1)C(=O)O` [Peptide 9015.0089], which IC50 (A*3002) is on record?
Its IC50 is 198 nM.

How did the IC50 (A*3002) turn out when `CC[C@H](C)[C@H](N)C(=O)N[C@H](C(=O)N[C@@H](CCCCN)C(=O)N[C@H](C(=O)NCC(=O)N1CCC[C@H]1C(=O)N[C@@H](CCC(=O)O)C(=O)N[C@@H](CC(N)=O)C(=O)N1CCC[C@H]1C(=O)N[C@@H](Cc1ccc(O)cc1)C(=O)O)[C@@H](C)CC)[C@@H](C)O` [Peptide 9015.0162] was run?
The IC50 was 382 nM.
